Screening results from PubChem.
A549 viability = A549 cytotoxicity, counter-screen for Nrf2 inhibitors. Potency, µM (highest dose often 46 µM), for the others: top-dose activity change, negative = cytotoxicity, hits mostly inhibitors. AID 504648. 390,000 compounds, 0.16% hits. A549 ARE-Fluc cells, CellTiter-Fluor viability, 18-24 h; further: potency means the concentration at half of the fitted maximal effect; on the % scale 0 is the no-effect control and ±100 the full control effect
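Cytotoxicity counterscreen: CellTiter-Fluor fluorescence was measured in A549 ARE_Fluc cells after 18-24 h of compound exposure in a concentration series. The subsequent BugLite luminescent read reports ARE-luciferase activity.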
miR-21 reporter = miR-21 reporter, rising signal | AID 2288 | HeLa miR-21 FLuc reporter, luciferase, 48 h | 340,000 tested, under 10 active | Potency, µM (doses to about 38.3 µM), for inactives: at the top dose reporter change, positive = more light; active = well fitted rising curve with a large enough effect; inconclusive = small, poorly fitted or top-dose-only effect; inactive = no such curve, though single readings can be large or run the other way;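 note: % of control where 0% means no effect; miR-21 action dims this reporter so a rising signal means less miR-21 action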
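HeLa miR-21-FLuc reporter line, endogenous miR-21; 2000 cells/well in DMEM/10% FBS; compound titration up to ~40uM final, 48 h, 37 degree Celsius; luciferase detection reagent, 15 min lysis, CCD luminescence.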
Nrf2 ARE act = Nrf2 pathway activation. Potency, µM (doses to about 46.1 µM), for inactives: top-dose activation, hits mostly activators. AREc32 ARE-luciferase reporter (MCF7-derived line), luminescence, 24 h. 410,000 compounds, 0.31% hits; further: potency means the concentration at half of the fitted maximal effect; % of control where 0% means no effect; nearly all actives have a fitted effect of over 65% in size
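Each well held 1000 AREc32 cells, which were incubated with compound for 24 hr at 37 deg C after overnight attachment, and ARE reporter activity was quantified by firefly luciferase luminescence.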
p53 reactivator = restores transcriptional activity of mutant p53 | 320,000 compounds, 0.063% hits | H1299 p53-A138V BP100-luciferase reporter, luminescence, 24 h | AID 504706 | Potency, µM (highest dose often 92.2 µM), inactives show top-dose activity change, positive = activation, usual class: activators; further: potency means the concentration at half of the fitted maximal effect; % of control where 0% means no effect; nearly all actives have a fitted effect of over 45% in size
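p53-null H1299 cells stably carrying temperature-sensitive p53-A138V and a BP100-luciferase reporter were pinned with compounds (4-point, 1:5 series) and held 24 hrs at 37 deg C. Luminescence was read 10 min after detection reagent.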
Nrf2 block = Nrf2 pathway inhibition; Potency, µM (titrated, usually from 46 µM), for the others: at the highest dose activity change, negative = inhibition, hits mostly inhibitors; 360,000 compounds, 2.1% hits; AID 504444; A549 ARE-Fluc reporter, luciferase luminescence, 18-24 h; further: potency means the concentration at half of the fitted maximal effect; on the % scale 0 is the no-effect control and ±100 the full control effect; nearly all actives have a fitted effect of over 60% in size
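In this cell-based qHTS, ARE-driven firefly luciferase in A549 cells reports Nrf2 activity; the luminescent signal after BugLite lysis is the measured value, with a prior CellTiter-Fluor read for cell health.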
ClpP mod = qHTS Assay for Activators of ClpP | ATP-dependent Clp protease proteolytic subunit (Bacillus subtilis (strain 168)), P80244 | purified B. subtilis ClpP, FRET peptide cleavage, 20 min | Potency, µM (series often up to 57.5 µM), for inactives: at the highest dose activity change, negative = active | 340,000 compounds, 1.9% hits; active means well fitted falling curve with a large enough effect; inconclusive means small, poorly fitted or top-dose-only effect; inactive means no such curve, though single readings can be large or run the other way; further: potency means the concentration at half of the fitted maximal effect; the source files actives as falling curves though it sought activators and does not explain the sign; nearly all actives have a fitted effect of over 65% in size
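Buffer: 100 mM Tris/HCl pH8, 100 mM KCl, 0.05% low protease BSA, 2.5% glycerol, 0.01% Tween-20. ClpP 10 microg/mL final; 20 min RT; delta FRET normalized to ADEP and DMSO controls.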
The depositor's hits bear a star; ? = inconclusive; . = not tested or not shown; [ ] = another dose, or the depositor's remark. Only some compounds are listed: those with a hit (about 3.7% of all), similar ones and a draw of the others. Unless noted, the call rests on the fitted dose curve; in most records, active means well fitted curve in the direction sought with a large enough effect; inconclusive means small, poorly fitted or top-dose-only effect, or another doubt; inactive means no such curve, though single readings can be large; an effect the other way counts as inactive or inconclusive.

Key to letters – A = A549 viability; B = miR-21 reporter; C = Nrf2 ARE act; D = p53 reactivator; E = Nrf2 block; F = ClpP mod
SMILES: O=C(NC1CCCC1)c1ccc(CSc2nc3ccncc3n2Cc2ccc(F)cc2)cc1
  A = 1%	B = -5%	C = 4%	D = 5%	E = ?	F = -7%
SMILES: COc1ccc(Cn2c(SCc3ccc(C(=O)NC4CCCCC4)cc3)nc3ccncc32)cc1
  A = -5%	B = ?	C = 7%	D = .	E = 13µM*	F = -24%
SMILES: Cc1ccc(Cn2c(SCc3ccc(C(=O)NC4CCCCC4)cc3)nc3ccncc32)cc1
  A = -16%	B = 23%	C = 4%	D = .	E = 21µM*	F = ?
SMILES: Cn1c(=O)c(-c2ccccc2)nc2ccccc21
  A = -4%	B = -24%	C = 17%	D = ?	E = ?	F = 25µM*
SMILES: O=C(O)c1cccc(S(=O)(=O)N2CCN(S(=O)(=O)c3ccc4c(c3)OCCO4)CC2)c1
  A = -3%	B = .	C = .	D = .	E = 3%	F = .
SMILES: Cc1ccnc(NC(=O)c2cc(S(=O)(=O)N3CCCCC3)ccc2Cl)c1
  A = 0%	B = 0%	C = 0%	D = 1%	E = -10%	F = 22µM*
SMILES: Cc1ccc(NC(=O)c2ccc(Cl)c(S(=O)(=O)N3CCCCCC3)c2)nc1
  A = ?	B = .	C = 0%	D = -1%	E = 23µM*	F = .
SMILES: O=C(Nc1cccnc1)c1ccc(Cl)c(S(=O)(=O)N2CCCCCC2)c1
  A = -5%[1.84 µM]	B = 15%	C = 2%	D = 2%	E = 15µM*	F = -1%
SMILES: Cc1ccc(C(=O)Nc2cccnc2)cc1S(=O)(=O)N1CCCCCC1
  A = -3%	B = -8%	C = -1%	D = -13%	E = -3%	F = 1%
SMILES: Cc1ccc(NC(=O)c2ccc(S(=O)(=O)N3CCCCCC3)cc2)nc1
  A = 2%	B = .	C = 6%	D = 12%	E = ?	F = -1%
SMILES: COc1ccc(S(=O)(=O)N2CCCCCC2)cc1C(=O)Nc1cc(C)ccn1
  A = -1%	B = .	C = 3%	D = 2%	E = 12%	F = -7%
SMILES: O=C(O)CC1(CC(=O)NCc2ccc(C(F)(F)F)cc2)CCCCC1
  A = -3%	B = -4%	C = 0%	D = -2%	E = ?	F = .
SMILES: O=C(O)CC1(CC(=O)Nc2cc(C(F)(F)F)cc(C(F)(F)F)c2)CCCCC1
  A = -6%	B = 11%	C = 3%	D = 1%	E = 23µM*	F = .
SMILES: OC(CNCCC1C=Nc2ccccc21)Cn1c2ccc(Cl)cc2c2cc(Cl)ccc21 (stereo not given)
  A = ?	B = ?	C = -2%	D = -27%	E = 2%	F = 28µM*
SMILES: C(=C\c1nc(-c2ccccc2)no1)/c1ccccc1
  A = -2%	B = -65%	C = 14µM*	D = .	E = ?	F = 0%
SMILES: CCOC(=O)C1=C(C)NC2=C(C(=O)C(C(=O)OCC)C(c3ccco3)C2)C1c1ccccn1 (stereo not given)
  A = -7%	B = 1%	C = 0%	D = -9%	E = -19%	F = 32µM*
SMILES: COc1ccc(NC(=O)c2ccc([N+](=O)[O-])s2)c([N+](=O)[O-])c1
  A = -19%	B = -11%	C = 10µM*	D = 3%	E = 3%	F = -3%
SMILES: CCOc1ccc(/C=C/C(=O)Nc2ccc(OC)cc2[N+](=O)[O-])cc1
  A = -19%	B = -6%	C = 0%	D = 1%	E = -14%	F = 10µM*
SMILES: CCN(Cc1ccccc1)S(=O)(=O)c1ccc(F)c(C(=O)Nc2cc(C(F)(F)F)ccc2Cl)c1
  A = 23%	B = 2%	C = 4%	D = .	E = .	F = -3%
SMILES: CCCCNC(=O)C1c2ccccc2OCC(=O)N1CCc1ccc(OC)c(OC)c1 (stereo not given)
  A = .	B = .	C = 0%	D = .	E = .	F = -4%
SMILES: COc1cccc(OCC(=O)NN=C2c3ccccc3-c3ccccc32)c1
  A = 2%[1.84 µM]	B = -6%	C = -1%	D = -4%	E = 18µM*	F = 13%
SMILES: COc1ccc(CNc2nc3ccccc3c3nc(-c4ccccc4)nn23)cc1
  A = 14%	B = -4%	C = 0%	D = .	E = -27%	F = 28µM*
SMILES: CCN(CC)CCCNc1nc2cc(OC)c(OC)cc2c2nc(-c3ccccc3)nn12
  A = -11%	B = 18%	C = 23%	D = -6%	E = 3%	F = 32µM*
SMILES: CCN(CC)CCCNc1nc2cc(OC)c(OC)cc2c2nc(-c3cccnc3)nn12
  A = ?	B = 1%	C = 0%	D = 3%	E = 19%	F = 2%
SMILES: Cc1oc(-c2ccc3c(c2)OCCO3)cc1C(=O)NCC(=O)O
  A = 2%	B = 10%	C = -1%	D = -5%	E = ?	F = .

4 compounds from above, ordered by SMILES length, high to low.
Key to letters – A = A549 viability; B = miR-21 reporter; C = Nrf2 ARE act; D = p53 reactivator; E = Nrf2 block; F = ClpP mod
SMILES: COc1ccc(Cn2c(SCc3ccc(C(=O)NC4CCCCC4)cc3)nc3ccncc32)cc1
  A = -5%	B = ?	C = 7%	D = .	E = 13µM*	F = -24%
SMILES: Cc1ccnc(NC(=O)c2cc(S(=O)(=O)N3CCCCC3)ccc2Cl)c1
  A = 0%	B = 0%	C = 0%	D = 1%	E = -10%	F = 22µM*
SMILES: O=C(O)CC1(CC(=O)NCc2ccc(C(F)(F)F)cc2)CCCCC1
  A = -3%	B = -4%	C = 0%	D = -2%	E = ?	F = .
SMILES: COc1cccc(OCC(=O)NN=C2c3ccccc3-c3ccccc32)c1
  A = 2%[1.84 µM]	B = -6%	C = -1%	D = -4%	E = 18µM*	F = 13%

The list continues.
Key to letters – A = A549 viability; B = miR-21 reporter; C = Nrf2 ARE act; D = p53 reactivator; E = Nrf2 block; F = ClpP mod
SMILES: Cc1oc(-c2ccc3c(c2)OCCO3)cc1C(=O)O
  A = -5%	B = ?	C = -1%	D = -37%	E = 9.2µM*	F = ?
SMILES: CCN(CC)CCN1CCn2c3c(c4cc(C)ccc42)CCCC31 (stereo not given)
  A = 7%	B = 11%	C = 12%	D = 8%	E = -2%	F = -7%
SMILES: CCN1CCn2c3c(c4cc(Cl)ccc42)CCCC31 (stereo not given)
  A = 2%	B = -6%	C = 4%	D = 11%	E = -24%	F = 16µM*
SMILES: C/C(CC(=O)Nc1ccc(Cl)c(C(F)(F)F)c1)=N\NC(=O)c1ccccc1O
  A = ?	B = 14%	C = 9%	D = ?	E = 23µM*	F = ?
SMILES: COc1cc(-c2nc3n(n2)C(c2ccc(F)cc2)C(C(N)=O)=C(C)N3)cc(OC)c1OC (stereo not given)
  A = -1%	B = -1%	C = 7%	D = .	E = 11%	F = -2%
SMILES: COc1cc(OC)c(NC(=O)N2CCOCC2)cc1Cl
  A = 1%	B = -3%	C = 0%	D = ?	E = -3%	F = 28µM*
SMILES: COc1cc(OC)c(NC(=O)c2csc(C)c2)cc1Cl
  A = -3%	B = -12%	C = 13µM*	D = -22%	E = 21%	F = 1%
SMILES: COc1cc(OC)c(NC(=O)c2cc3ccccc3cc2O)cc1Cl
  A = -27%	B = .	C = 23%	D = .	E = 26µM*	F = -9%
SMILES: COc1cc(NC(=O)c2ccccc2)c(OC)cc1Cl
  A = -1%	B = -7%	C = 16%	D = -5%	E = -4%	F = 1%
SMILES: CCOC(=O)c1cccc(NC(=O)Cc2ccc(NC(=O)N3CCCCc4ccccc43)cc2)c1
  A = -24%	B = -6%	C = 6%	D = .	E = ?	F = -14%
SMILES: Cc1c(Cl)cccc1NC(=O)N1CCC(CN2CCCC2)CC1
  A = 17%	B = -8%	C = -1%	D = .	E = 6%	F = 0%
SMILES: CCC(C)(C)NC(=O)Cn1c(=O)ccc2cc(S(=O)(=O)N3CCC(C)CC3)ccc21
  A = 12%	B = 25%	C = 0%	D = .	E = .	F = -5%
SMILES: COc1ccc(/C=C/c2cc(C(=O)O)c3ccccc3n2)cc1
  A = 0%	B = ?	C = -2%	D = -7%	E = 6.5µM*	F = .
SMILES: COc1ccc2nc(C)cc(C(=O)O)c2c1
  A = 2%	B = -3%	C = -2%	D = 7%	E = 2%	F = 8.9µM*
SMILES: COc1ccc2nc(C)cc(Nc3ccc(C(=O)O)cc3)c2c1
  A = -1%	B = 4%	C = -1%	D = 3%	E = 9%	F = -11%
SMILES: COc1cc(OC)c(OC)cc1/C=C/c1cc(C(=O)O)c2ccccc2n1
  A = -9%	B = 5%	C = 0%	D = -3%	E = -23%	F = -6%
SMILES: CCOc1ccc2nc(C)cc(C(=O)O)c2c1
  A = 4%	B = -2%	C = 0%	D = 2%	E = 0%	F = 3.2µM*
SMILES: O=C1CCc2cc(S(=O)(=O)Nc3ccc4ncccc4c3)ccc2N1
  A = -10%	B = .	C = .	D = .	E = 0%	F = .
SMILES: CCc1ccc(NCc2cc3ccc(OC)cc3n(CC(=O)Nc3ccccc3OC)c2=O)cc1
  A = -1%	B = 1%	C = 0%	D = .	E = 14%	F = -5%
SMILES: CCOc1ccc(CNC(=O)c2nn(-c3ccc(OC)cc3)c(=O)c3c2c2ccccc2n3C)cc1
  A = 11%	B = -4%	C = 0%	D = .	E = ?	F = 1%
